Compound activity from PubChem BioAssay.
SIRT5 block: SIRT5 desuccinylase inhibitors, primary screen, biochemical, fluorescence imaging, single point, set 5. inhibition, % at 15 µM. Purified SirT5, succinyl-peptide AMC, trypsin-coupled fluorescence. 330,000 tested, 1.1% active; in the data active means inhibition above about 15%; inconclusive means no clear call, values can overlap the other calls
E-sel inducer: E-selectin induction in HUVECs, primary screen, imaging, HUVEC, immunofluorescence imaging, single point | P16581 | normalized: neutral wells 0, TNF-alpha wells 100 | activation, % at 7.58 µM | 260,000 tested, 0.37% active;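 active means mean E-selectin-positive cell signal at least 10% of the positive control, reached in at least 60% of replicates, without over 20% cell loss; inconclusive means no rule given, readout overlaps actives, possibly toxicity-flagged; inactive means the rest, including those meeting only one limit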
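System: HUVEC / Compound: single concentration / Signal: immunofluorescence imaging / Read-out: percent E-selectin-positive cells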
MLL AF4-AF9 inh: inhibitors of AF4 peptide binding to AF9, primary screen, biochemical, AlphaScreen, biotin-AF4 peptide, FLAG-AF9, single point | 350,000 tested, 0.47% active | Protein AF-9 (Homo sapiens), P42568 | AID 651704, 2012 | inhibition, % at 10 µM;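 active means every replicate reaching a set inhibition limit, whatever the replicate mean, cut at about 25% in these data; inconclusive means mean inhibition reaches that limit but some replicates miss it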;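 further: 0% = plate neutral control median and 100% = total signal loss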
RAD54 inh: inhibitors of human RAD54 branch migration, primary screen, biochemical, fluorescence, single point; DNA repair and recombination protein RAD54-like (Homo sapiens), Q92698; RAD54 Holliday junction branch migration, FAM/BHQ fluorescence; inhibition, % at 10.4 µM; 360,000 tested, 0.14% active;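 active means mean normalized replicate activity at least 40 and at least half of replicates scoring 40 or more; inconclusive means only one of the two criteria met; inactive means mean below 40 and under half of replicates reaching 40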;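 further: 0% = median of neutral control wells and 100% = median of positive control wells; inhibitors cause a drop in the FAM fluorescence signal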
RAD52 inh: RAD52 DNA annealing inhibitors, primary screen, biochemical, FRET, single point, set 2 | inhibition, % at 18.7 µM | DNA repair protein RAD52 homolog (Homo sapiens), P43351 | AID 651710, 2012 | recombinant RAD52 DNA annealing, FRET fluorescence | 360,000 tested, 0.46% active;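 active means every replicate showing at least 50% inhibition; inconclusive means mean inhibition at least 50% but not in every replicate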
UUG fidelity: modulators of yeast start codon fidelity, primary screen, whole organism, S. cerevisiae, single point, plate reader | AID 602363, 2012 | S. cerevisiae UUG-firefly luciferase reporter, luminescence/redox ratio | activity score, % at 18.7 µM | hit rate 0.13% among 350,000;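 active = replicate mean at a twofold rise or more, about +100% in these data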;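 also: firefly luciferase made from a UUG start codon reports start codon fidelity; reporter light over untreated wells divided by growth signal over untreated wells; some hits fall short of that in this replicate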
* = called active by the depositor; u = inconclusive; x = not tested or not shown. An excerpt weighted towards active compounds, which were near 1.8% of everything screened.

SMILES	SIRT5 block	E-sel inducer	MLL AF4-AF9 inh	RAD54 inh	RAD52 inh	UUG fidelity
CO[C@@H]1CN(C)C(=O)c2ccc(NC(=O)NC(C)C)cc2OC[C@@H](C)N(Cc2ccccc2)C[C@@H]1C	18*	0	1	-5	8	3
CO[C@H]1CN(C)C(=O)c2ccc(NC(=O)NC(C)C)cc2OC[C@H](C)N(Cc2ccccc2)C[C@H]1C	23*	0	4	5	19	11
CO[C@H]1CN(C)C(=O)c2cc(NC(=O)NC(C)C)ccc2OC[C@H](C)N(Cc2ccccc2)C[C@H]1C	8	0	1	0	-6	x
CO[C@@H]1CN(C)C(=O)c2ccc(NC(=O)c3nc4ccccc4s3)cc2OC[C@@H](C)N(Cc2cccnc2)C[C@H]1C	102*	0	x	6	x	x
CO[C@@H]1CN(C)C(=O)c2ccc(NC(=O)NC(C)C)cc2OC[C@@H](C)N(Cc2ccccc2)C[C@H]1C	0	2	1	x	4	x
C[C@@H]1CN([C@@H](C)CO)C(=O)c2cc(NC(=O)Nc3ccc4c(c3)OCO4)ccc2O[C@H]1CN(C)Cc1ccc2c(c1)OCO2	0	0	15	30	4	-9
COc1ccc(-c2nc3cnccn3c2Nc2ccc3c(c2)OCO3)cc1	2	0	28*	1	-12	-3
COc1ccc(Nc2c(-c3ccc(OC)cc3)nc3cnccn23)cc1	-2	1	-45	2	-20	-18
COc1ccc(Nc2c(-c3ccc(C)cc3)nc3cnccn23)cc1	18*	0	u	x	-9	x
C[C@H](CO)N1C[C@H](C)[C@H](CN(C)C)Oc2ccc(NC(=O)Nc3cccc4ccccc34)cc2C1=O	2	-4	-1	20	x	10
C[C@H]1CN([C@@H](C)CO)C(=O)c2cc(NS(=O)(=O)c3ccc(F)cc3)ccc2O[C@@H]1CN(C)S(=O)(=O)c1cccs1	0	-2	1	7	0	14
C[C@H](CO)N1C[C@H](C)[C@@H](CN(C)C(=O)NC2CCCCC2)Oc2c(NC(=O)NC3CCCCC3)cccc2C1=O	-6	0	-1	-3	5	4
COCC(=O)Nc1ccc2c(c1)[C@@H]1C[C@H](CC(=O)NCc3ccccc3OC)O[C@@H](CO)[C@@H]1O2	1	0	2	0	-4	-9
O=C(C[C@H]1CC[C@H](NC(=O)C2CCC2)[C@H](CO)O1)NCc1ccccc1Cl	25*	0	0	2	-7	-15
COCC(=O)N[C@H]1CC[C@H](CC(=O)NCc2ccccc2OC)O[C@H]1CO	1	0	-12	1	5	-19
O=C(C[C@@H]1CC[C@@H](NC(=O)C2CCC2)[C@@H](CO)O1)NCc1ccccc1Cl	-5	-2	0	-4	3	-14
COCC(=O)Nc1ccc2c(c1)[C@@H]1C[C@@H](CC(=O)NCc3ccccc3OC)O[C@@H](CO)[C@@H]1O2	19*	0	1	-1	-12	-2
COCC(=O)N[C@@H]1CC[C@H](CC(=O)NCc2ccccc2OC)O[C@@H]1CO	16*	0	-11	-7	2	-17
COC(=O)C[C@H]1C[C@H]2c3cc(NC(=O)Cc4ccncc4)ccc3O[C@H]2[C@H](CO)O1	0	-1	1	-4	13	-10
COC(=O)C[C@@H]1C[C@H]2c3cc(NC(=O)Cc4ccncc4)ccc3O[C@H]2[C@H](CO)O1	15*	0	0	-6	4	-11
C[C@H]1CCCCO[C@@H](CN(C)C(=O)NC2CCCCC2)[C@@H](C)CN([C@@H](C)CO)C(=O)c2cc(NS(=O)(=O)c3cccs3)ccc2O1	-1	0	-3	-2	-27	10
CC(C)C#Cc1ccc2c(c1)O[C@H](CN(C)CC1CCOCC1)[C@@H](C)CN([C@@H](C)CO)S2(=O)=O	7	0	6	-1	-10	0

A second format for 3 compounds above:
Every second line gives: SIRT5 block	E-sel inducer	MLL AF4-AF9 inh	RAD54 inh	RAD52 inh	UUG fidelity
COCC(=O)Nc1ccc2c(c1)[C@@H]1C[C@H](CC(=O)NCc3ccccc3OC)O[C@@H](CO)[C@@H]1O2
 : 1	0	2	0	-4	-9
CO[C@@H]1CN(C)C(=O)c2ccc(NC(=O)NC(C)C)cc2OC[C@@H](C)N(Cc2ccccc2)C[C@H]1C
 : 0	2	1	x	4	x
O=C(C[C@H]1CC[C@H](NC(=O)C2CCC2)[C@H](CO)O1)NCc1ccccc1Cl
 : 25*	0	0	2	-7	-15
